Data as given in patent US20010041716A1, “Compositions and methods for locally treating inflammatory diseases” (priority 1999, published 2001).

Columns and labels:
[1] = Description: Differential Thermal Analysis: The heat of fusion (ΔHf) and the entropy of fusion (ΔSf) of thalidomide and its N-alkyl analogs were determined with a Perkin-Elmer DSC7 Differential Scanning Calorimeter (DSC), which was calibrated with an indium standard.
Using this surmise, the solubility parameters for all the solutes were calculated. […] In each case the solutions are considered ideal at the peak of their parabolas.

[2] = pH 6
Description: Skin Preparation and Permeation: The human cadaver skin used in the permeation studies was obtained from the Anatomical Donation Program at the University of Michigan. Vertical Franz diffusion cells with a 4 ml capacity receptor compartment and a 0.8 cm^2 diffusion area were used in the permeation studies. The epidermal layer of the skin was mounted carefully onto the lower half of the cells of the difflusion apparatus with the stratum corneum facing up. The receptor compartments were filled with isotonic phosphate buffer (pH 6.4). […]
The permeability coefficient for a given run was calculated from Fick's law of diffuision: [formula]
dC/dt is the steady-state slope of a plot of the amount of substance which had penetrated the skin against time in terms of jig/h. It was determined by taking the ratio of the total amount permeated in an interval of time to the length of the time interval. […]
The permeation parameters (flux, J; lag time, TL and permeability coefficient, P) of thalidomide and its N-alkyl analogs from their saturated aqueous solutions (pH 6.0) and an ethanol/water/octanol vehicle are summarized in Table 4. […] The steady-state flux was determined from the slope of the linear portion of the cumulative amount-time plot. The lag time (TL) was determined by extrapolating the linear portion of the curve to its intersection with the time axis. […]

Activity of solid phase a2^s, ΔCp = 0 [1]: 5.18 × 10^−2
Activity of solid phase a2^s, ΔCp = ΔSp [1]: 7.89 × 10^−2
Ln X2,ideal, ΔCp = 0 [1]: −2.96
Ln X2,ideal, ΔCp = ΔSr [1]: −2.54
Lag time TL = SD [2]: 1.8 ± 1.1 h
Substance: N-propyl thalidomide
